# Yeast mating assay B: variants of the scFv Ab-14

The measurements come from Li et al. 2023 (doi:10.1038/s41467-023-39022-2) through the FLAb antibody collection.

Target peptide (SARS-CoV-2 spike, HR2 region): PDVDLGDISGINAS

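The parent was found by panning a naive human phage display library on the peptide. The variants were designed computationally from a first round of random CDR variants and then made and measured. Their group label is 14H_En_Gen (En: ensemble of fine-tuned language models; Gen: genetic algorithm). The scFvs were displayed on barcoded MATa yeast, the peptide on MATalpha yeast. After mating in shaken culture at 30 °C for 16 h, diploids were selected and their barcode pairs sequenced. The ratio of observed to expected reads was calibrated, replicate by replicate, on BCL2-family standards whose Kd was known from biolayer interferometry. The assay was run in six technical replicates.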

The variants keep the light chain, the linker and the frameworks of Ab-14 (scFv order VH, three GGGGS repeats, VL).
VH: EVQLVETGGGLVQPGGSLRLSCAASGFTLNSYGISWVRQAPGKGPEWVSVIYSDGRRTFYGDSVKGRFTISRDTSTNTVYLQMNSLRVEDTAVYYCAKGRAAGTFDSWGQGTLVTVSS
VL: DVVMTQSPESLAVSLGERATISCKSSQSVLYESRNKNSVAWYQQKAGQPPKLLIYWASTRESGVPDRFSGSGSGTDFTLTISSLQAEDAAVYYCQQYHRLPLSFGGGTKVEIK

Variants are written as CDR1, CDR2 and CDR3 of the heavy chain (limits as in the source). Parent: GFTLNSYGIS, VIYSDGRRTFYGDSVK, GRAAGTFDS.
Numbers give log10(Kd / nM), so 0 is 1 nM and 3 is 1 µM. Smaller is tighter.
Averages over replicates are reported, and they cover detected replicates only.
"nd" means that the variant was in the library but no mating with the target was seen in that replicate; the authors take this as a sign of poor binding, and no number exists.

| CDR-H1 | CDR-H2 | CDR-H3 | replicates, log10 nM | log10 Kd (nM), mean | control signals |
|---|---|---|---|---|---|
| GFDLNEYGIS | VIYADGSRTAYADSVK | GNVAGTFDV | nd / -1.11 / -1.66 / -1.70 / -1.16 / 0.45 | -1.04 | 0 of 18 |
| GFDLNEYGIS | VIYADGMRTAYTDDVK | GNNAGTFDI | 0.24 / -0.16 / -0.33 / -0.56 / -0.21 / -0.14 | -0.19 | 1 of 18 (0.97) |
| GFDLNEYGIS | VIYADGMRTAYSDNVK | GETAGTFDI | -0.27 / -0.53 / -0.46 / -0.74 / -0.08 / -0.19 | -0.38 | 0 of 18 |
| GFDLNEYGIS | VIYADGMRTAYSDSVK | GNAAGTFDV | 0.18 / -0.24 / -0.29 / -0.27 / 0.00 / -0.17 | -0.13 | 0 of 18 |
| GFDLNEYGIS | VIYADGVRTAYADDVK | GNVAGTFDQ | nd / nd / nd / nd / nd / nd | nd | 0 of 18 |
| GFDLNEYGIS | VIYADGMRTAYVDSVK | GTNAGTFDL | 0.17 / 0.18 / -0.38 / 0.12 / -0.32 / 0.04 | -0.03 | 1 of 18 (1.78) |
| GFDLDEYGIS | VIYADGVRTFYADSVK | GNQAGTFDV | -0.22 / 0.01 / -0.39 / -0.40 / -0.28 / -0.15 | -0.24 | 0 of 18 |
| GFDLDEYGIS | VIYADGMRTAYSDSVK | GQNAGTFDM | -0.35 / -0.66 / -1.06 / -0.49 / -0.64 / -0.33 | -0.59 | 0 of 18 |
| GFDLDEYGIS | VIYADGRRTAYVDSVK | GENAGTFDV | -0.23 / -0.45 / -0.53 / -0.09 / -0.03 / 0.04 | -0.22 | 0 of 18 |
| GFDLDEYGIS | VIYADGVRTAYADDVK | GNQAGTFDV | 0.24 / 0.08 / -0.83 / 0.20 / 0.32 / 0.20 | 0.04 | 0 of 18 |
| GFDLNEYGIS | VIYADGRRTAYADDVK | GNNAGTFDM | 0.39 / -0.05 / -0.35 / -0.23 / -0.13 / -0.11 | -0.08 | 0 of 18 |
| GFDLNEYGIS | VIYADGKRTAYADSVK | GNHAGTFDI | nd / nd / nd / nd / nd / nd | nd | 1 of 18 (2.93) |
| GFDLNEYGIS | VIYADGKRTAYSDSVK | GNQAGTFDQ | -0.16 / 0.22 / -0.61 / -0.20 / 0.19 / -0.07 | -0.11 | 0 of 18 |
| GFDLNEYGIS | VIYADGRRTAYSDSVK | GNNAGTFDQ | -0.93 / nd / -1.33 / -1.49 / -1.29 / 0.76 | -0.86 | 0 of 18 |
| GFDLNEYGIS | VIYADGKRTAYADDVK | GQVAGTFDV | 0.90 / -0.53 / -0.92 / -0.09 / -0.64 / -0.26 | -0.26 | 0 of 18 |
| GFDLDEYGIS | VIYADGMRTAYSDSVK | GNQAGTFDT | -0.32 / -0.21 / -0.46 / 0.16 / -0.24 / 0.17 | -0.15 | 0 of 18 |
| GFDLNEYGIS | VIYADGMRTAYADSVK | GQNAGTFDM | -0.61 / -0.46 / -0.49 / -0.68 / -0.85 / -0.28 | -0.56 | 0 of 18 |
| GFDLNEYGIS | VIYADGQRTAYSDSVK | GNTAGTFDQ | -0.37 / -0.64 / -0.44 / -0.52 / -0.29 / -0.52 | -0.46 | 0 of 18 |
| GFDLNEYGIS | VIYADGMRTAYADSVK | GGVAGTFDL | -1.05 / -1.12 / -0.93 / -1.30 / -0.52 / -1.03 | -0.99 | 1 of 18 (0.56) |
| GFDLNEYGIS | VIYADGSRTAYADSVK | GQNAGTFDV | -0.11 / 0.25 / -0.20 / -0.56 / -0.11 / -0.59 | -0.22 | 0 of 18 |
| GFDLDEYGIS | VIYADGMRTFYADSVK | GENAGTFDT | 0.31 / 0.24 / 0.14 / 0.09 / 0.01 / 0.52 | 0.22 | 0 of 18 |
| GFDLNEYGIS | VIYADGMRTAYADSVK | GEAAGTFDL | -0.17 / -0.38 / -0.26 / -0.46 / -0.13 / -0.16 | -0.26 | 1 of 18 (2.27) |
| GFDLDEYGIS | VIYADGMRTAYADSVK | GHNAGTFDV | 0.32 / -0.31 / 0.72 / -0.12 / -0.65 / -0.48 | -0.09 | 1 of 18 (0.59) |
| GFDLDEYGIS | VIYADGMRTAYADDVK | GNEAGTFDV | 0.03 / 0.73 / 0.28 / 0.72 / 0.97 / 0.85 | 0.60 | 0 of 18 |
| GFDLDEYGIS | VIYADGMRTAYADDVK | GEVAGTFDT | -0.16 / -0.30 / -0.11 / -0.05 / -0.56 / -0.37 | -0.26 | 2 of 18 (2.20) |
| GFDLDEYGIS | VIYADGRRTAYADSVK | GENAGTFDI | -0.06 / 0.28 / -0.18 / -0.22 / -0.25 / -0.65 | -0.18 | 0 of 18 |
| GFDLNEYGIS | VIYADGVRTYYADSVK | GNNAGTFDM | -0.67 / -0.37 / -0.83 / -1.09 / -0.82 / 0.03 | -0.63 | 0 of 18 |
| GFDLNEYGIS | VIYADGMRTAYADDVK | GNEAGTFDL | -0.97 / 0.25 / -0.83 / nd / -0.55 / 0.62 | -0.30 | 0 of 18 |
| GFDLNEYGIS | VIYADGMRTVYADSVK | GANAGTFDV | nd / nd / nd / nd / nd / nd | nd | 0 of 18 |
| GFDLNEYGIS | VIYADGKRTYYADSVK | GENAGTFDL | -0.68 / -1.12 / -0.87 / 0.47 / -0.24 / -0.70 | -0.52 | 0 of 18 |
| GFDLNEYGIS | VIYADGLRTAYTDSVK | GNVAGTFDI | -1.76 / -1.61 / -1.68 / -1.26 / -1.75 / -1.96 | -1.67 | 0 of 18 |
| GFDLNEYGIS | VIYADGMRTFYADSVK | GENAGTFDM | 0.06 / -0.21 / -0.10 / -0.32 / -0.05 / 0.38 | -0.04 | 1 of 18 (2.56) |
| GFDLDEYGIS | VIYADGRRTAYTDSVK | GENAGTFDI | nd / nd / nd / nd / nd / nd | nd | 0 of 18 |
| GFDLNEYGIS | VIYADGVRTSYADSVK | GNNAGTFDV | nd / nd / nd / nd / nd / nd | nd | 0 of 18 |
| GFDLNEYGIS | VIYADGKRTAYADSVK | GQTAGTFDI | -0.70 / -0.96 / -0.79 / -0.98 / -0.83 / -0.70 | -0.83 | 0 of 18 |
| GFDLDEYGIS | VIYADGMRTVYADSVK | GEVAGTFDL | -0.20 / -0.41 / -0.48 / -0.75 / -0.04 / -0.29 | -0.36 | 0 of 18 |

Picked from the list: the 3 lowest averages where every replicate gave a value.

| CDR-H1 | CDR-H2 | CDR-H3 | replicates, log10 nM | log10 Kd (nM), mean | control signals |
|---|---|---|---|---|---|
| GFDLNEYGIS | VIYADGLRTAYTDSVK | GNVAGTFDI | -1.76 / -1.61 / -1.68 / -1.26 / -1.75 / -1.96 | -1.67 | 0 of 18 |
| GFDLNEYGIS | VIYADGMRTAYADSVK | GGVAGTFDL | -1.05 / -1.12 / -0.93 / -1.30 / -0.52 / -1.03 | -0.99 | 1 of 18 (0.56) |
| GFDLNEYGIS | VIYADGKRTAYADSVK | GQTAGTFDI | -0.70 / -0.96 / -0.79 / -0.98 / -0.83 / -0.70 | -0.83 | 0 of 18 |

In the paper, a design with two or fewer of six values counts as a poor binder.
The parent sequence was in this pool as ten entries: three were never detected, three once, and four in most replicates, with averages from 0.34 to 2.37.
Nonspecific signal, from three strains lacking the peptide, appeared in 1% of pairings of all heavy chain designs, centred on 2.08 (5% of these signals below 0.84); values are not corrected for it. For each scFv, signals with the empty controls are counted beside the result, with their mean in brackets.
A sequence measured in both rounds can read differently, since the two assays cover different ranges.